The values below come from US12264170B2, “Antimicrobial organosilanes” (TOPIKOS SCIENTIFIC, INC., priority 2019, dated 2025).

Structures are written as SMILES.

The conditions of this series: product dissolved in water, observation.

Turning to `CCCCCCCCCCCCCCCCCC[N+](C)(C)CCC[Si](OCC(CO)(CO)NCC(=O)[O-])(OCC(CO)(CO)NCC(=O)[O-])OCC(CO)(CO)NCC(=O)O.[Cl-].[Na+].[Na+]` [Example 10, Disodium, 7-(2-((carboxymethyl)amino)-3-hydroxy-2-(hydroxymethyl)propoxy)-7-(3-(dimethyl(octadecyl)ammonio)propyl)-4,4,10,10-tetrakis(hydroxymethyl)-6,8-dioxa-3,11-diaza-7-silatridecanedioate; chloride], the stability in water entry was “soon formed a suspension”.
